The results in this text go back to patent US20260199359A1 (INCYTE CORPORATION, priority 2021, published 2026).

This data set can be described thus: Apparent pH of solvent systems before API addition and of saturated supernatant. Conditions: for Vehicle pH: before API addition; for Supernatant pH: saturated with ruxolitinib phosphate. It is filed as physicochemical.
The mark [1] stands for this setting: SSAG01 with 3.50% w/w of the named base.
Where [2] appears, read: SSCR01 with 3.50% w/w of the named base.
Where [3] appears, read: SSNA01 with 3.50% w/w of the named base.

Turning to `OCCN(CCO)CCO`, the “Vehicle pH” value under setting [1] was determined as 10.31, the “Vehicle pH” value under setting [2] was 9.63 and the “Vehicle pH” value under setting [3] came out at 9.11. Further, the “Supernatant pH” value reads like this: under setting [1], 4.27; under setting [2], 3.43; under setting [3], 4.35.
